Reference: patent US20110097751A1

Target: GLP-1 receptor on rat thyroid carcinoma 6-23 (clone 6) cells (rat) (UniProt P32301)
Experiment: cell-based or functional assay

Q: “exenatide (synthetic exendin-4) (peptide)” was tested. Which Mean Relative Potency (cAMP HTRF bioassay; sample REF50, 0.125 mg/mL, against exenatide reference standard) did it give?
A: 0.467

Q: And the Mean Relative Potency (cAMP HTRF bioassay; sample REF075, 0.188 mg/mL, against exenatide reference standard)?
A: 0.758

Q: And the Mean Relative Potency (cAMP HTRF bioassay; sample REF100, against exenatide reference standard)?
A: 1.01

Q: What about the Mean Relative Potency (cAMP HTRF bioassay; sample REF125, 0.313 mg/mL, against exenatide reference standard) of the same substance?
A: 1.21

Q: And the Mean Relative Potency (cAMP HTRF bioassay; sample REF150, 0.375 mg/mL, against exenatide reference standard)?
A: 1.5

Q: What about the Relative Potency % (cAMP HTRF bioassay; BYETTA Lot 1 against exenatide reference standard) of the same substance?
A: 104%

Q: What about the Relative Potency % (cAMP HTRF bioassay; BYETTA Lot 2 against exenatide reference standard) of the same substance?
A: 108%

Q: And the Relative Potency % (cAMP HTRF bioassay; BYETTA Lot 3 against exenatide reference standard)?
A: 102%

Q: What about the Relative Potency % (cAMP HTRF bioassay; EQW Lot 1 against exenatide reference standard) of the same substance?
A: 78.1%

Q: And the Relative Potency % (cAMP HTRF bioassay; EQW Lot 2 against exenatide reference standard)?
A: 75.9%

Q: And the Relative Potency % (cAMP HTRF bioassay; EQW Lot 3 against exenatide reference standard)?
A: 88.6%

Q: What about the Relative Potency %, average of 3 BYETTA lots (cAMP HTRF bioassay) of the same substance?
A: 105%

Q: And the Relative Potency %, average of 3 EQW lots (cAMP HTRF bioassay)?
A: 80.9%
